Measured values reported in IntAct's records for PubMed 35512704.

B1: RAC-alpha serine/threonine-protein kinase (Homo sapiens), P31749 (parent)
chain: MSDVAIVKEGWLHKRGEYIKTWRPRYFLLKNDGTFIGYKERPQDVDQREAPLNNFSVAQCQLMKTERPRPNTFIIRCLQWTTVIERTFHVETPEEREEWTTAIQTVADGLKKQEEEEMDFRSGSPSDNSGAEEMEVSLAKPKHRVTMNEFEYLKLLGKGTFGKVILVKEKATGRYYAMKILKKEVIVAKDEVAHTLTENRVLQNSRHPFLTALKYSFQTHDRLCFVMEYANGGELFFHLSRERVFSEDRARFYGAEIVSALDYLHSEKNVVYRDLKLENLMLDKDGHIKITDFGLCKEGIKDGATMKTFCGTPEYLAPEVLEDNDYGRAVDWWGLGVVMYEMMCGRLPFYNQDHEKLFELILMEEIRFPRTLGPEAKSLLSGLLKKDPKQRLGGGSEDAKEIMQHRFFAGIVWQHVYEKKLSPPFKPQVTSETDTRYFDEEFTAQMITITPPDQDDSMECVDSERRPHFPQFSYSASGTA
partner: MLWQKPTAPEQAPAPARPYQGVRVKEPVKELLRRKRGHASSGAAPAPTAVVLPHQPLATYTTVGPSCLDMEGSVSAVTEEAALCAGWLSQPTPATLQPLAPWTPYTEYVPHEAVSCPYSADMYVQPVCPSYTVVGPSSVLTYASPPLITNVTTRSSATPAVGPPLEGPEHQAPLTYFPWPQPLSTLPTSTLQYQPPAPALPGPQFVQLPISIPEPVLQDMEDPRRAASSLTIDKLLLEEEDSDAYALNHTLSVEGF
B2: RAC-alpha serine/threonine-protein kinase (Homo sapiens), P31749 (parent)
chain: B1 chain
partner: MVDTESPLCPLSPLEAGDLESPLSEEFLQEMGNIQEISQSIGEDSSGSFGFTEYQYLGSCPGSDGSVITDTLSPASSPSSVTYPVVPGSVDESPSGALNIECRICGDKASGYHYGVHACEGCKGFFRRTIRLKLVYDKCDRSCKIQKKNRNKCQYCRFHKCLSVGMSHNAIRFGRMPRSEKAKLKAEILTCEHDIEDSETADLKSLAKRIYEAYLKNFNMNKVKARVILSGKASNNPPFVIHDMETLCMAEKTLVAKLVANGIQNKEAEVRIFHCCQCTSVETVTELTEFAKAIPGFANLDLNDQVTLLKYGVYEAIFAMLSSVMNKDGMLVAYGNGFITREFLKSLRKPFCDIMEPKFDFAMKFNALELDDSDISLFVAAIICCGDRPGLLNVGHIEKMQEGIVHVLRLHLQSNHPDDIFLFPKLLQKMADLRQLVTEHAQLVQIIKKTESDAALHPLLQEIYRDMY
B3: RAC-alpha serine/threonine-protein kinase (Homo sapiens), P31749 (parent)
chain: B1 chain
partner: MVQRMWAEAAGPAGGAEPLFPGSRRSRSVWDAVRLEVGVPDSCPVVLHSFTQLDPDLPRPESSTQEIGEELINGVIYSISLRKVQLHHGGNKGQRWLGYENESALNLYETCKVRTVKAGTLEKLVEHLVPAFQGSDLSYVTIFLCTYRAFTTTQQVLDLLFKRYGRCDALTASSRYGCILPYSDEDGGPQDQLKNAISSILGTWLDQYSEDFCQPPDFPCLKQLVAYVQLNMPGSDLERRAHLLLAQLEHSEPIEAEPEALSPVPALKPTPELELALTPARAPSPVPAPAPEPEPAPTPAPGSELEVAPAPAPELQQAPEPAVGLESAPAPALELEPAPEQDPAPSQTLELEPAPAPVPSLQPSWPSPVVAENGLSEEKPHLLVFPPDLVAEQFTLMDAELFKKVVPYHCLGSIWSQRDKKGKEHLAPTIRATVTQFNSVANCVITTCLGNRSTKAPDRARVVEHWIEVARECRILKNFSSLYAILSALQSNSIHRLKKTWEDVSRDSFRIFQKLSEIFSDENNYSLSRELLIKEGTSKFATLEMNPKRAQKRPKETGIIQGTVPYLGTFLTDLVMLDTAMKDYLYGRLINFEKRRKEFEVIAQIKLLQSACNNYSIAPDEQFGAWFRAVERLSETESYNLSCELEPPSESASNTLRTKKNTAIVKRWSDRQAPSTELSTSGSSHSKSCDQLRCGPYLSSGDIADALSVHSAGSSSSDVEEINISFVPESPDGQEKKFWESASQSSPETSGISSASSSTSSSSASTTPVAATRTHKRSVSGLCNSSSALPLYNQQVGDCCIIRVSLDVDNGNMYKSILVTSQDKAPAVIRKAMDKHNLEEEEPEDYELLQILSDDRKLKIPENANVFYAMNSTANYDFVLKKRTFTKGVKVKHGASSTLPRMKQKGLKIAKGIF
B4: RAC-alpha serine/threonine-protein kinase (Homo sapiens), P31749 (parent)
chain: B1 chain
partner: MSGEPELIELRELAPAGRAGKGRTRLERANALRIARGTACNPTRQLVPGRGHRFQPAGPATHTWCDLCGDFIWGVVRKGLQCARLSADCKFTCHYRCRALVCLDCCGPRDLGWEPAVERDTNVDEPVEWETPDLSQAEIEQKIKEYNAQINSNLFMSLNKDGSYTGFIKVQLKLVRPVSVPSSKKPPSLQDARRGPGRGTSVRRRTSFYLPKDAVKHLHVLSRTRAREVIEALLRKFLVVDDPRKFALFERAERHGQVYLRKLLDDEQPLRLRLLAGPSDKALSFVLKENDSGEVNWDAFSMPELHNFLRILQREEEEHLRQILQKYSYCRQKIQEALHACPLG
B5: RAC-alpha serine/threonine-protein kinase (Homo sapiens), P31749 (parent)
chain: B1 chain
partner: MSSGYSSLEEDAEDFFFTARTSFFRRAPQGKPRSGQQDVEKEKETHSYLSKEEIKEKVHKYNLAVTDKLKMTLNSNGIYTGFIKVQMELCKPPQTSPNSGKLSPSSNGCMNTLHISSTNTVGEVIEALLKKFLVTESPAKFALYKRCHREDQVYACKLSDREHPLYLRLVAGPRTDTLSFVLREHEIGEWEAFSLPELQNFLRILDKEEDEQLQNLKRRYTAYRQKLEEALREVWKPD

Variants of: B1
Conditions: with obf1_human POU2AF1, Q16633

| effect of a mutation on the interaction | Variant |
| --- | --- |
| causing an interaction | E17K |

Variants of: B1
Conditions: with obf1_human POU2AF1, Q16633
Remark: another data set of the same source

| effect of a mutation on the interaction | Variant |
| --- | --- |
| increasing interaction strength | E17K |

Variants of: B2
Conditions: with ppara_human PPARA

| effect of a mutation on the interaction | Variant |
| --- | --- |
| causing an interaction | E17K |

Variants of: B3
Conditions: with gnds_human RALGDS

| effect of a mutation on the interaction | Variant |
| --- | --- |
| causing an interaction | E17K |

Variants of: B4
Conditions: with rasf1_human RASSF1, Q9NS23

| effect of a mutation on the interaction | Variant |
| --- | --- |
| causing an interaction | E17K |

Variants of: B4
Conditions: with rasf1_human RASSF1, Q9NS23
Remark: another data set of the same source

| effect of a mutation on the interaction | Variant |
| --- | --- |
| increasing interaction strength | E17K |

Variants of: B5
Conditions: with rasf3_human RASSF3, Q86WH2

| effect of a mutation on the interaction | Variant |
| --- | --- |
| causing an interaction | E17K |
